Results taken from patent US5196094A, “Separation of 1,1,1-trichloroethane from the lower alcohols by extractive distillation” (priority 1991, dated 1993).
Structures can show the parent of a compound that is named as a salt.

Experiments:
Assay type in all cases: physicochemical
[1] = Vapor-liquid equilibrium still, separation of 1,1,1-trichloroethane from n-propanol
[2] = Vapor-liquid equilibrium still, separation of 1,1,1-trichloroethane from ethanol
[3] = Vapor-liquid equilibrium still, separation of 1,1,1-trichloroethane from 2-butanol
[4] = Vapor-liquid equilibrium still, separation of 1,1,1-trichloroethane from methanol
[5] = Vapor-liquid equilibrium still, separation of 1,1,1-trichloroethane from t-butanol
[6] = Vapor-liquid equilibrium still, separation of 1,1,1-trichloroethane from isopropanol

| Structure (SMILES) | Relative Volatility [1] | Relative Volatility [2] | Relative Volatility [3] | Relative Volatility [4] | also measured |
| --- | --- | --- | --- | --- | --- |
| CN1CCCC1=O [1-Methyl-2-pyrrolidinone] | 3.0 |  |  |  |  |
| CCCCCO [1-Pentanol] |  | 3.0 |  |  |  |
| CCCCCCC(C)=O [2-Octanone] |  | 1.45 |  |  |  |
| CCCCC(=O)CC [3-Heptanone] |  |  | 1.6 | 1.5 |  |
| N#CCCCCC#N [Adiponitrile] | 2.2 | 2.0 | 2.7 | 1.9 | Relative Volatility [5]: 1.4 |
| COc1ccccc1 [Anisole] |  |  |  |  | Relative Volatility [6]: 1.55 |
| OCc1ccccc1 [Benzyl alcohol] |  |  |  | 3.0 |  |
| CCOC(=O)/C=C\C(=O)OCC [Diethyl maleate] |  |  | 1.9 |  |  |
| CC(C)CC(O)CC(C)C [Diisobutyl carbinol] | 1.9 |  |  |  |  |
| CN(C)C=O [Dimethylformamide] |  | 2.0 |  |  | Relative Volatility [5]: 1.9 |
| CCOCCOC(C)=O [Ethylene glycol ethyl ether acetate] |  |  | 1.9 |  |  |
| CCCCCCOCCO [Ethylene glycol hexyl ether] | 1.9 |  |  |  |  |
| CCCCCCOC(C)=O [Hexyl acetate] |  |  |  | 1.9 |  |
| CC(=O)OCC(C)C [Isobutyl acetate] |  | 1.3 |  |  |  |
| CCCC(=O)OCC(C)C [Isobutyl butyrate] | 1.3 | 1.25 | 1.5 | 4.0 | Relative Volatility [6]: 1.25 |
| CC(C)COC(=O)C(C)C [Isobutyl isobutyrate] |  |  |  | 1.9 |  |
| COC(=O)c1ccccc1 [Methyl benzoate] |  | 1.45 | 1.6 | 2.2 | Relative Volatility [6]: 1.4 |
| CC[N+](=O)[O-] [Nitroethane] | 1.9 |  | 2.0 |  |  |
| CC(C)COCC(C)O (centres unmarked) [Propylene glycol isobutyl ether] | 1.9 |  |  |  |  |
| O=S1(=O)CCCC1 [Sulfolane] | 3.0 |  |  | 2.9 |  |
